## Measured affinities in a library of Ab-14 heavy chain variants

Target peptide (SARS-CoV-2 spike, HR2 region): PDVDLGDISGINAS

Each scFv is VH, a (GGGGS)3 linker, VL, as in the parent Ab-14, and differs from it in the CDRs of the heavy chain only.
VH: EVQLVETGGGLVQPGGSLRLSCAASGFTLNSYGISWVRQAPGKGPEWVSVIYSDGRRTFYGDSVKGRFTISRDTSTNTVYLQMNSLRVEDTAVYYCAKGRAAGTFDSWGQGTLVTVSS
VL: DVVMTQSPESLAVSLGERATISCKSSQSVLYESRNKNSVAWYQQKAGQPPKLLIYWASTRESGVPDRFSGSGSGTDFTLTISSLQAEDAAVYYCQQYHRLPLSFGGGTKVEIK

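Phage display of a naive human antibody library on the peptide gave the parent. In library AAYL49, one, two or three CDR residues were substituted; doubles and triples were drawn at random. In AlphaSeq, yeast of one mating type display the scFv and yeast of the other type display the target. After mating in shaken culture at 30 °C for 16 h, diploids were selected and their barcode pairs sequenced. A regression on co-assayed BCL2-family reference pairs converts the normalised counts of each replicate to an apparent Kd. Mating was done three times.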

Variants are written as CDR1, CDR2 and CDR3 of the heavy chain (limits as in the source). Parent: GFTLNSYGIS, VIYSDGRRTFYGDSVK, GRAAGTFDS. Numbers give log10(Kd / nM), so 0 is 1 nM and 3 is 1 µM. Smaller is tighter. "nd" means that the variant was in the library but no mating with the target was seen in that replicate; the authors take this as a sign of poor binding, and no number exists. Three control strains display no target. For library AAYL49, 15% of the pairings with them gave a signal, with a median of 4.06 and one signal in twenty below 2.83, so weak values seen in few replicates may be background. For each scFv, signals with the empty controls are counted beside the result, with their mean in brackets.

CDR-H1	CDR-H2	CDR-H3	log10 Kd (nM) by replicate	empty controls
GFTLNSYGIS	VIYHDGRRTQYGDSVK	GRATGTFDS	nd / nd / nd	0 of 9
GYTLNSYGIS	VIYSDGRRAFYGDSVK	GRAAGTFDM	nd / 4.51 / 3.85	3 of 9 (3.22)
GFTLNSYGIS	VIFSDGRRTFYGVSVK	GRADGTFDS	nd / nd / nd	0 of 9
GFTLNSYGQS	VWYSDGRRTFYGDSVK	GRAAGGFDS	nd / nd / nd	0 of 9
GFTLQSYGIS	VIYSDGRRTFYGDSVK	GRRAGTADS	2.90 / 2.40 / 3.18	0 of 9
GFTLNSYGIS	VIYSDGRRTFLGDRAK	GRAAGTFDS	4.05 / 3.77 / 5.47	3 of 9 (4.15)
GFTLNSYYIS	NIYSDGRRTFYGDSVK	GRAAGTFDN	nd / nd / nd	4 of 9 (4.82)
GFTLNSYGIS	VIWHDGRETFYGDSVK	GRAAGTFDS	nd / nd / nd	1 of 9 (4.32)
GFTLFSYGIS	VLYSDGRRTFMGDSVK	GRAAGTFDS	nd / 3.26 / 3.60	3 of 9 (3.84)
GFTLNSYGIS	VIYSDGRRTFYGDSVY	GRAAGTQDS	nd / nd / nd	0 of 9
GFTLNSLGIS	NIYSDGRRTFYGDSVK	GRAAGTFFS	nd / 4.10 / 4.87	4 of 9 (4.29)
GITLSSYGIS	VIYSDGRRTFYGDSVK	GRTAGTFDS	1.17 / 1.28 / 1.24	6 of 9 (4.88)
GFTLLSYGIS	VIYSDGVDTFYGDSVK	GRAAGTFDS	nd / 4.19 / 5.43	5 of 9 (4.42)
GFTLNSYGIY	VIYSDTRRTFYGFSVK	GRAAGTFDS	nd / nd / nd	0 of 9
GFTENSYGQS	VIYDDGRRTFYGDSVK	GRAAGTFDS	nd / nd / nd	2 of 9 (4.30)
GFTLNSYGIS	VIYSDGRRTFYGDSVK	KRAAGTFDV	3.29 / 3.69 / nd	1 of 9 (1.73)
GFTLNSYGIS	VYYSDGRRTFYGDSVK	GRNAGTDDS	nd / 4.85 / nd	1 of 9 (4.15)
GFTLYSYGIS	VIYYDGRREFYGDSVK	GRAAGTFDS	nd / 4.16 / nd	3 of 9 (4.51)
GFTLNSYGIS	VIYSDGRRTFYGDSVE	GLQAGTFDS	1.31 / 1.10 / 1.05	1 of 9 (3.66)
GFTLNSRGIS	VIYSDGRETFYGDSVK	GRAAGTFDS	nd / nd / nd	2 of 9 (4.08)
GDTLNSQGIS	VIYSDGRRTFYGDSVK	GRAAGTFDE	1.14 / 1.18 / 1.37	1 of 9 (5.35)
GFTLNSYGIS	VIYSDGRRSMYGDSVK	GYAAGTFDS	2.14 / 2.04 / 2.32	3 of 9 (4.14)
GFTLNSYGIS	VIYSDLRRTFYQDMVK	GRAAGTFDS	nd / 3.51 / nd	2 of 9 (3.48)
GFTLNSYGID	VIYYDGRRTFYGDSVK	GRAAATFDS	nd / 5.47 / 3.95	2 of 9 (4.98)
GFTLNSYFIS	VIQSDGCRTFYGDSVK	GRAAGTFDS	nd / nd / nd	0 of 9
GFTLNSYGIS	VIYSDGRRTFRRDSVK	GRAANTFDS	nd / nd / nd	2 of 9 (4.45)
GFTLNSYGIS	VIYSDGRRTFYGDSVN	GRCYGTFDS	3.42 / nd / nd	0 of 9
GFTLNSYIIC	VIYSDGRRTIYGDSVK	GRAAGTFDS	3.53 / nd / nd	6 of 9 (4.47)
GFTLNSYLIS	VIYSDGRRTKYGDSVK	GRWAGTFDS	nd / nd / nd	1 of 9 (3.22)
GFTLNSYGIS	VIYSDGRRTFYGDSVK	GQAAGTTDS	2.09 / 2.11 / 2.19	5 of 9 (3.98)
GFTLNSYGPS	VCYSDGRKTFYGDSVK	GRAAGTFDS	nd / nd / nd	0 of 9
GFTCNSHGIS	SIYSDGRRTFYGDSVK	GRAAGTFDS	nd / 3.13 / 3.86	2 of 9 (3.87)
GFTLNSYGIS	VIYSDGRNYFYGDSVK	GRHAGTFDS	nd / nd / nd	1 of 9 (2.45)
APTLNSYGIS	VIYSDGRRTFYGDSVK	GRALGTFDS	5.61 / nd / nd	3 of 9 (3.91)
GFTLCSYGIS	VIYSCGRRTFYGDSVK	GRACGTFDS	4.40 / 3.63 / 6.04	2 of 9 (4.62)
GFTLNDYGIS	VTYSDGRRTFQGDSVK	GRAAGTFDS	nd / nd / nd	2 of 9 (3.52)
GFTLNRYGIS	VIWSDGRRTFYGDSVK	GRAAGTIDS	nd / nd / nd	0 of 9
GTTLNSYGIS	VIPSDGRRWFYGDSVK	GRAAGTFDS	4.54 / 4.81 / 4.39	3 of 9 (4.70)
GFTLNSYGRS	VIYSDGRRTFYGDSVK	GREALTFDS	6.00 / nd / 5.84	1 of 9 (3.62)
GFTLNSYGIS	VIYSDGRRTFYFDSVS	LRAAGTFDS	4.18 / nd / nd	4 of 9 (3.91)
GFTLNSYGIN	VFYSDGRRTFYGDSVK	GRAAWTFDS	nd / nd / nd	0 of 9
GFTLNSYGIS	VIYSAARCTFYGDSVK	GRAAGTFDS	4.48 / 4.28 / nd	1 of 9 (3.91)
GFTLNSYGIS	VIVSDGRRTFYFDSKK	GRAAGTFDS	nd / 3.49 / nd	3 of 9 (4.20)
GFTLNSYGIS	VGYSDGRRTFAGDSVK	GRAAGTFDN	nd / nd / nd	1 of 9 (4.54)
GFTYNSYGIS	VIYSDGRRTFKGDSVK	GRAAGTFDS	4.46 / nd / 5.77	3 of 9 (4.26)
GFTLNSYGIS	VIYSDGRRVFLGDSVK	GRAGGTFDS	nd / nd / nd	0 of 9
GFTNNGYGIS	VIYSDGRRTFYGDSVK	GRAAYTFDS	nd / nd / 3.85	1 of 9 (4.86)
GFTLSSYGAS	VIYSDGRRTFYGDSVK	GRAAGTFDC	nd / nd / nd	1 of 9 (4.23)
GFTLNSYVIS	VIYSDGRRTFYGDSVK	GRAAGTEDT	nd / nd / nd	0 of 9
GFTLNSYSIS	SIYSDGRRTFYDDSVK	GRAAGTFDS	nd / nd / nd	0 of 9
GFGLNSYSIS	VIYSDGRRTFYGDSVK	GRAAGTFDS	nd / 3.67 / nd	1 of 9 (3.62)
GFNCNSYGIS	VCYSDGRRTFYGDSVK	GRAAGTFDS	nd / 2.64 / nd	0 of 9

In this assay the parent's reference entry averaged 0.65; its copy inside this library read 4.11 (one replicate of three).

Reference: Engelhart et al. 2022, doi:10.1038/s41597-022-01779-4. File: FLAb, binding data.